Screening data as filed in PubChem BioAssay.
An excerpt weighted towards active compounds, which were near 1% of everything screened.
C2C12 statin: protects C2C12 myotubes from simvastatin toxicity | 330,000 compounds, 0.78% hits | ATP luminescence, 48 h; scaled: DMSO 0, geranylgeraniol control 100 | rescue of ATP level, % at 7.49 µM;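 active means mean ATP rescue above about 67%, or every replicate alone reaching that limit, limit read from the data, passing the limit was not always enough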;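 further: myotubes were challenged with 10 µM simvastatin during compound exposure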
Yeast UUG start: modulators of yeast start codon fidelity, primary screen, whole organism, S. cerevisiae, single point, plate reader. S. cerevisiae UUG-firefly luciferase reporter, luminescence/redox ratio. activity score, % at 18.7 µM. 350,000 tested, 0.13% active;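 active = replicate mean at a twofold rise or more, about +100% in these data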;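 also: firefly luciferase made from a UUG start codon reports start codon fidelity; reporter light over untreated wells divided by growth signal over untreated wells; some hits fall short of that in this replicate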
Rtt109 Vps75: blocks Candida albicans Rtt109/Vps75 acetyltransferase activity | inhibition, % at 34.9 µM | purified Rtt109/Vps75, ThioGlo CoA-SH fluorescence, 4 h | 330,000 compounds, 0.16% hits | AID 540336 | Q5AAJ8;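 active means inhibition of at least 50% in every replicate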
Cneo AK release: causes C. neoformans cell lysis; adenylate kinase release luminescence, 4 h; normalised: neutral wells 0, clomiphene wells 100; lysis activity, % at 15 µM; 360,000 compounds, 0.2% hits;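 active means mean lysis activity across replicates of at least 80%, whatever share of replicates individually reach that level; inactive means mean lysis activity below 80%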
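Assay system: Cryptococcus neoformans yeast cells / Dosing: single-point compound dose / Timing: 4 h at 37 °C static, read 1 h later / Measured by: luminescence of released adenylate kinase using an AK detection reagent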
CDK5 p35 inh: CDK5/p35 (human) kinase inhibition; Recombinant CDK5/p35, ADP-Glo luminescence, 60 min; inhibition, % at 10 µM; 330,000 compounds, 0.01% hits;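 active means highest replicate inhibition of at least 50% and at least 75% of replicates reaching 50%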;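 further: plate controls were DMSO neutral control for no effect and GW8510 at 10 µM for full effect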
* = called active by the depositor; / = no result given; ! = a repeat was not active.

Every second line gives: C2C12 statin, Cneo AK release, Yeast UUG start, CDK5 p35 inh, Rtt109 Vps75
C[C@H](CO)N1C[C@H](C)[C@@H](CN(C)S(=O)(=O)c2ccc(Cl)cc2)Oc2c(NC(=O)Nc3ccc(C(F)(F)F)cc3)cccc2C1=O
  102*, 0, -17, /, /
C[C@@H]1CN([C@@H](C)CO)C(=O)c2cccc(NC(=O)Nc3ccc(C(F)(F)F)cc3)c2O[C@H]1CN(C)S(=O)(=O)c1ccc(Cl)cc1
  -5, -1, -11, /, /
C[C@@H]1CN([C@@H](C)CO)C(=O)c2cccc(NC(=O)c3ccncc3)c2O[C@@H]1CN(C)S(=O)(=O)c1ccc(Cl)cc1
  73*, 4, -2, /, /
C[C@H]1CN([C@@H](C)CO)C(=O)c2cccc(NC(=O)Nc3ccc(C(F)(F)F)cc3)c2O[C@@H]1CN(C)S(=O)(=O)c1ccc(Cl)cc1
  113*!, -2, -15, -1, 4
O=C([C@@H]1[C@@H](CO)[C@@H]2Cn3c(cccc3=O)[C@H]1N2Cc1cccc(Cl)c1)N1CCCCC1
  -26, -4, /, /, /
O=C([C@@H]1[C@@H](CO)[C@@H]2Cn3c(cccc3=O)[C@H]1N2Cc1cccc(Cl)c1)N1CCOCC1
  13, 98*, /, /, /
C[C@H](CO)N1C[C@H](C)[C@H](CN(C)C(=O)Nc2ccc(C(F)(F)F)cc2)Oc2ccc(NS(=O)(=O)c3ccc(Cl)cc3)cc2C1=O
  -59, /, /, /, /
COc1ccc2c(c1)N(C)C(=O)CC(c1ccccc1)=N2
  108*, 1, -14, 0, -12
C[C@@H]1CN([C@@H](C)CO)C(=O)c2ccccc2-c2ccccc2CO[C@@H]1CN(C)S(C)(=O)=O
  -11, -4, /, /, /
CCC(Sc1nc2n[nH]c(C)c2c(=N)n1-c1ccc(C)c(Cl)c1)C(=O)N1CCOCC1 (configuration not stated)
  96*, 5, -13, -1, -3
CCC(Sc1nc2n[nH]c(C)c2c(=N)n1-c1cccc(Cl)c1)C(=O)NCCOC (configuration not stated)
  /, -2, 1, 0, 4
Cc1ccccc1-c1cnc2c(c1)C(=O)N([C@H](C)CO)C[C@@H](C)[C@H](CN(C)Cc1cncnc1)O2
  23, /, /, /, /
CCCCOC(=O)Cn1c(=O)c2c(nc3n2CCCCN3c2ccc(C)cc2)n(C)c1=O
  103*, -3, -8, 0, -5
CC(NC(=O)Nc1ccccc1O)(C(F)(F)F)C(F)(F)F
  91*, 1, 6, 0, -4
CC(NC(=O)Nc1ccc(O)cc1)(C(F)(F)F)C(F)(F)F
  -1, 9, 5, 2, -18
CCOC(=O)C1=C(C)Nc2ccccc2S1
  1, -4, -19, 0, 51*
Cc1cc(C)cc(NC(=O)Nc2ccc3c(c2)C(=O)N(C)[C@@H]2CC[C@@H](CC(=O)O)O[C@@H]2CO3)c1
  12, 2, -1, /, /
CN(C)CCCNC(=O)C[C@@H]1CC[C@H]2[C@@H](COc3ccc(NC(=O)c4ccccc4F)cc3C(=O)N2C)O1
  -17, -3, -7, /, /
C[C@@H]1CN([C@H](C)CO)C(=O)Cc2cc(NC(=O)Cc3cn(C)c4ccccc34)ccc2O[C@@H]1CN(C)C(=O)Nc1ccccc1
  14, 0, 2, /, /
Cc1ccc(S(=O)(=O)Nc2ccc3c(c2)CC(=O)N([C@H](C)CO)C[C@@H](C)[C@@H](CN(C)Cc2ccc(Cl)c(Cl)c2)O3)cc1
  116*, 0, -5, /, /

Ordered by formula weight (ascending): 5 of the compounds above
Every second line gives: C2C12 statin, Cneo AK release, Yeast UUG start, CDK5 p35 inh, Rtt109 Vps75
CC(NC(=O)Nc1ccccc1O)(C(F)(F)F)C(F)(F)F
  91*, 1, 6, 0, -4
CCCCOC(=O)Cn1c(=O)c2c(nc3n2CCCCN3c2ccc(C)cc2)n(C)c1=O
  103*, -3, -8, 0, -5
O=C([C@@H]1[C@@H](CO)[C@@H]2Cn3c(cccc3=O)[C@H]1N2Cc1cccc(Cl)c1)N1CCCCC1
  -26, -4, /, /, /
C[C@@H]1CN([C@H](C)CO)C(=O)Cc2cc(NC(=O)Cc3cn(C)c4ccccc34)ccc2O[C@@H]1CN(C)C(=O)Nc1ccccc1
  14, 0, 2, /, /
C[C@H](CO)N1C[C@H](C)[C@@H](CN(C)S(=O)(=O)c2ccc(Cl)cc2)Oc2c(NC(=O)Nc3ccc(C(F)(F)F)cc3)cccc2C1=O
  102*, 0, -17, /, /

Going on with the list:
Every second line gives: C2C12 statin, Cneo AK release, Yeast UUG start, CDK5 p35 inh, Rtt109 Vps75
C[C@@H]1CN([C@@H](C)CO)C(=O)Cc2cc(NS(=O)(=O)c3ccccc3)ccc2O[C@H]1CN(C)Cc1ccc(Cl)c(Cl)c1
  -34, 9, 9, /, /
Cc1ccc(S(=O)(=O)Nc2ccc3c(c2)CC(=O)N([C@@H](C)CO)C[C@@H](C)[C@@H](CN(C)Cc2ccc(Cl)c(Cl)c2)O3)cc1
  77*, -7, 10, /, /
Cc1ccc(S(=O)(=O)Nc2ccc3c(c2)CC(=O)N([C@H](C)CO)C[C@@H](C)[C@H](CN(C)Cc2ccc(Cl)c(Cl)c2)O3)cc1
  103*, 6, 0, /, /
Cc1ccc(S(=O)(=O)Nc2ccc3c(c2)CC(=O)N([C@@H](C)CO)C[C@H](C)[C@H](CN(C)Cc2ccc(Cl)c(Cl)c2)O3)cc1
  12, 0, 7, /, /
COc1ccc(S(=O)(=O)Nc2ccc3c(c2)CC(=O)N([C@@H](C)CO)C[C@H](C)[C@H](CN(C)Cc2ccc(Cl)c(Cl)c2)O3)cc1
  17, 0, 5, /, /
Cc1ccc(S(=O)(=O)Nc2ccc3c(c2)CC(=O)N([C@H](C)CO)C[C@H](C)[C@@H](CN(C)Cc2ccc(Cl)c(Cl)c2)O3)cc1
  145*, 3, 18, /, /
O=C(C[C@H]1C[C@@H]2c3cc(NC(=O)Nc4ccccc4F)ccc3O[C@@H]2[C@@H](CO)O1)NCc1cc(F)ccc1F
  6, 2, 12, /, /
Cc1ccc(C2CC2c2n[nH]c(=S)n2-c2ccc(C)cc2)cc1 (configuration not stated)
  118*, 17, -18, 1, 16
CCCC(=O)Nc1ccc2c(c1)C(=O)N(C)C[C@H](OC)[C@H](C)CN(Cc1ccncc1)[C@@H](C)CO2
  3, /, /, /, /
O=Cc1c(Cl)[nH]c(=O)n1-c1ccccc1
  /, 0, -10, 0, -3
O=c1[nH]c2cc(Cl)ccc2n1-c1ccccc1
  100*, 1, -2, 1, -10
C[C@@H]1CN([C@H](C)CO)C(=O)c2cccc(NC(=O)Nc3ccc4c(c3)OCO4)c2O[C@@H]1CN(C)C(=O)Nc1ccccc1
  25, -4, 15, /, /
CCCOc1ccc(C(=O)C(CN2CCOCC2)c2ccccc2)cc1 (configuration not stated)
  78*, -2, 3, -2, 6
CCCOc1ccc(C(=O)C(c2ccccc2)N2CCOCC2)cc1 (configuration not stated)
  16, -16, -26, 0, -5
Cc1nn(C2CCS(=O)(=O)C2)c2nc(C3CC3)cc(C(=O)Nc3ccc(C(N)=O)cc3)c12 (configuration not stated)
  /, /, /, 0, 50*
COc1ccccc1NC(=O)c1c(N=Cc2c(O)ccc3ccccc23)cnn1C
  /, /, /, -1, -1
Cn1ncc(N=Cc2ccccc2O)c1C(=O)Nc1ccccc1
  118*, 1, -6, -3, -12
C[C@@H]1CN([C@H](C)CO)C(=O)c2cc(NC(=O)Nc3ccc(F)cc3)ccc2O[C@@H](C)CCCCO[C@@H]1CN(C)S(=O)(=O)c1ccc(Cl)cc1
  /, -5, -3, /, /
COc1ccc(S(=O)(=O)N2CCCC2)cc1Br
  6, -1, 0, -1, -6
COc1ccc(S(=O)(=O)N2CCCCC2)cc1C(C)C
  113*, 0, 2, -3, 7
C[C@H]1CN([C@@H](C)CO)C(=O)Cc2cc(NC(=O)Cc3ccccc3)ccc2O[C@@H]1CN(C)C(=O)Nc1ccc(F)cc1
  1, 1, 3, /, /
O=C(C[C@H]1CC[C@H](NC(=O)Nc2ccc(C(F)(F)F)cc2)[C@H](CO)O1)NCc1cccc(F)c1
  -1, 91*, 13, /, /
